This experiment addresses T1, P2X purinoceptor 2 (Homo sapiens, UniProt Q9UBL9).
T1 sequence (Q9UBL9 whole entry): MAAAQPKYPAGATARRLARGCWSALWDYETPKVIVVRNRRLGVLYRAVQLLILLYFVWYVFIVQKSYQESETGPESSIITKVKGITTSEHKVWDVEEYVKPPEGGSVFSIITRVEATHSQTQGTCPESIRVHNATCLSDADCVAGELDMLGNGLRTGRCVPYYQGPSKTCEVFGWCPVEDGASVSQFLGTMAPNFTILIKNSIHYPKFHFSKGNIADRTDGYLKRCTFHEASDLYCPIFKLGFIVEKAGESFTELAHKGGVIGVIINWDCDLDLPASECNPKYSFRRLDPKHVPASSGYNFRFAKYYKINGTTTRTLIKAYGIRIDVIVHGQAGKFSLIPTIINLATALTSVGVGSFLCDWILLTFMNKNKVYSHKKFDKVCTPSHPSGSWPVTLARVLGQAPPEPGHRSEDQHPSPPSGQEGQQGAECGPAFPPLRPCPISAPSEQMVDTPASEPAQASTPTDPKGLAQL

Regarding `Cc1cnc(-c2cc(OC(C)C(C)O)cc(C(=O)N[C@H](C)c3ccc(C(F)(F)F)nn3)c2)s1` (single isomer, unassigned), the 50% inhibitory concentration (IC50) is 706 nM.
In the case of `Cc1cnc(-c2cc(OC3CCN(C)C(C(F)(F)F)C3)cc(C(=O)N[C@H](C)c3cnc(C(F)(F)F)nc3)c2)s1` (single isomer, unassigned) it was 109 nM.
In the case of `Cc1cnc(-c2cc(OCC3(F)CCCN(C)C3)cc(C(=O)N[C@H](C)c3cnc(C(F)(F)F)nc3)c2)s1` (single isomer, unassigned) it was 310 nM.
In turn, `Cc1cnc(-c2cc(OC3CCCNC3)cc(C(=O)N[C@H](C)c3cnc(C(F)(F)F)nc3)c2)s1` (single isomer, unassigned) yielded an IC50 of 1680 nM.

For orientation: IC50 means the concentration at which inhibition is half-maximal. A low value points to inhibition by little substance.

(Values after ChEMBL document CHEMBL5726182, “1,3-thiazol-2-yl substituted benzamides” (2019).)
